{"source": "paper PMC5363837", "about": "(Circulation, 2017)", "key": {"[1]": {"target": "T1, human apelin receptor expressed in CHO-K1 cells (human, UniProt P35414 1-380)", "T1 construct": "human apelin receptor (APJ) expressed in CHO-K1 cells; the Data Supplement Methods may tell; Used here also as the target of the cell-based assays, whose cells the text calls only 'cells expressing the apelin receptor'; also called APJ; source: Chinese hamster ovary (CHO)-K1 cells expressing the human apelin receptor", "T1 sequence (looked up)": "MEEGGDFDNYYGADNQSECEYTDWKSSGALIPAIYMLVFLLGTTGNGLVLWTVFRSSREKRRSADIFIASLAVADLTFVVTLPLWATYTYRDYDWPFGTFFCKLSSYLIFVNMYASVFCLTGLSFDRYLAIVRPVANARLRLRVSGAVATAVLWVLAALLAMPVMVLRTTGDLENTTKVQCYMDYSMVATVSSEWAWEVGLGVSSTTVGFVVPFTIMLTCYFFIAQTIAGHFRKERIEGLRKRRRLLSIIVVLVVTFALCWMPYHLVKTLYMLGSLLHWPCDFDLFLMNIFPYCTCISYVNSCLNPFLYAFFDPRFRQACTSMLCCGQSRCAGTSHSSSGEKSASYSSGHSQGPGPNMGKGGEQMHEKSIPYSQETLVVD", "assay": "radioligand binding; competition binding in CHO-K1 cells expressing the human apelin receptor", "conditions": "one partner purified"}, "[2]": {"target": "T1, human apelin receptor expressed in …", "assay": "cell-based or functional assay"}}}
{"binder": "QRRCMPLHSRVPFP (limits not given; taken as the C-terminal 14 residues, ELA(19-32); N-terminal Gln may be pyroglutamate)", "note": "[ELA-14]", "values": [{"measurement": "pKi", "setting": "[1]", "value": 9.35}, {"measurement": "cAMP assay, pD2 (-log10 EC50)", "setting": "[2]", "value": 10.1}, {"measurement": "β-arrestin recruitment assay, pD2 (-log10 EC50)", "setting": "[2]", "value": 9.08}]}
